# Test results from ChEMBL document CHEMBL1146899, “Redefining the structure-activity relationships of 2,6-methano-3-benzazocines. 4. Opioid receptor binding properties of 8-[N-(4'-phenyl)-phenethyl)carboxamido] analogues of cyclazocine and ethylketocycalzocine” (J Med Chem, 2006).
# Protein sequences, listed by entry. Tags and fused reporters are not part of them. Lines headed by an entry give the natural chain unless they say otherwise; changes in a name come on top.
# UniProt P35372, whole entry, looked up: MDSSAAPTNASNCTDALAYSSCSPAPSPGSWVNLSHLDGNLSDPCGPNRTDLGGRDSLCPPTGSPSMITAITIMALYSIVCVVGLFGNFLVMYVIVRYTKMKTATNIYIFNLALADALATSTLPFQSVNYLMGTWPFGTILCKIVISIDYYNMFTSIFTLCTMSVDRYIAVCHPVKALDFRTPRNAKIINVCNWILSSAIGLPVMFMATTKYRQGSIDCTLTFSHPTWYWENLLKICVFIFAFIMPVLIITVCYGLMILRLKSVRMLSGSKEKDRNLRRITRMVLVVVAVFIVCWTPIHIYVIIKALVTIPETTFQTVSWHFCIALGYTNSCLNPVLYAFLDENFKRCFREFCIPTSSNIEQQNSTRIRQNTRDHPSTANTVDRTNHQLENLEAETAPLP
# UniProt P41145: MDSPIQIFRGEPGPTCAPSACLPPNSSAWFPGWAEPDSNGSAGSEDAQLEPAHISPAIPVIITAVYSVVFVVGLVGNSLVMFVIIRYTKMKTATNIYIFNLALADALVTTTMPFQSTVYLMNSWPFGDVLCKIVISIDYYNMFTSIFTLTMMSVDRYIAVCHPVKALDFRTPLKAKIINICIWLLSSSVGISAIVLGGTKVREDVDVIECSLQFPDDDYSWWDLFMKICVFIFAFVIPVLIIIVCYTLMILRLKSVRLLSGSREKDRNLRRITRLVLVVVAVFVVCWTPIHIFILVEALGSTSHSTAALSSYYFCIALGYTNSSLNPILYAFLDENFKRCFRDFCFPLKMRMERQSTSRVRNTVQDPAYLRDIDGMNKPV
# Experiments:
# Mu-type opioid receptor = Mu-type opioid receptor (Homo sapiens, UniProt P35372); assay: Agonist activity at human mu opioid receptor expressed in CHO cells assessed as stimulation of [35S]GTP-gamma-S binding
# [1] = target: T1, Kappa-type opioid receptor (Homo sapiens, UniProt P41145); assay: Antagonist activity against human kappa opioid receptor expressed in CHO cells assessed as inhibition of U50488-stimulated [35S]GTP-gamma-S binding
# [2] = target: T1, Kappa-type opioid receptor; assay: Agonist activity at human kappa opioid receptor expressed in CHO cells assessed as stimulation of [35S]GTP-gamma-S binding
compound,measurement,setting,value
C[C@@H](NC(=O)[C@@H](N)Cc1ccc(O)cc1)C(=O)NCC(=O)N(C)[C@@H](Cc1ccccc1)C(=O)NCCO,Activity,Mu-type opioid receptor,inactive
C[C@H]1C2Cc3ccc(C(N)=O)cc3[C@@]1(C)CCN2CC1CC1,Activity,[1],inactive
same,Emax,[1],87%
CN(C(=O)Cc1ccc(Cl)c(Cl)c1)C1CCCCC1N1CCCC1 (stereo not given),Activity,[2],inactive
same,Emax,[2],77%

# Active and inactive are the calls of the source. The rule behind the calls is not given here.
